Laboratory results: patent US20200031771A1, “SUBSTITUTED PHENYLPROPIONIC ACID ENANTIOMER AND MANUFACTURING METHOD, COMPOSITION, AND APPLICATION OF SAME” (SHENZHEN CHIPSCREEN BIOSCIENCES CO., LTD., priority 2016, published 2020)

Tested on: db/db mice
Experiment: Glucose tolerance test (OTGG) in db/db mice after 14 days of administration
Format: in vivo, mouse
Conditions: oral 2 g/kg glucose, 0-120 min, n = 10
Method: The route of administration was oral, the dose was 20 mg/kg in the administration group and 5 mg/kg in the control group, the frequency of administration was once a day, and the administration period was 14 days. […] On days 0, 3, 6, 9, 12, and 14, after fasting for 6 hours after administration, blood was collected from the tail vein and fasting blood glucose levels was measured by a blood glucose meter and recorded.
After 14 days of administration, the animals were fasted overnight (<10 hours), and orally given 2 g/kg of glucose on the next day. Blood was collected from the tail vein at the 0 (pre-administration or fasting blood glucose level), 15, 30, 60 and 120 minutes after administration, respectively, and blood glucose levels were then measured by blood glucose meter and recorded.

Compound: CN(CCOc1ccc(CC2SC(=O)NC2=O)cc1)c1ccccn1 (stereo not shown) [rosiglitazone, reference compound]
- Glucose tolerance test AUC, average value: 45.76
